Earlier results in article PMC11329750 (Clinical and Translational Science, 2024).

System: pregnane X receptor (PXR)
Conditions: cited from earlier work

CO[C@H]1/C=C/O[C@@]2(C)Oc3c(C)c(O)c4c(O)c(c(/C=N/N5CCN(C)CC5)c(O)c4c3C2=O)NC(=O)/C(C)=C\C=C\[C@H](C)[C@H](O)[C@@H](C)[C@@H](O)[C@@H](C)[C@H](OC(C)=O)[C@@H]1C [rifampin]
binding to PXR weaker than hyperforin: more than 20 fold
